Here are results for two substances from patent publication US8080581B2, “Cosmetics” (Shiseido Company Ltd., priority 2006, dated 2011).

This data set can be described thus: Test of solubilizing ability (turbidity). As to conditions: 3 mass % solubilizing agent, 5 mass % ethanol, 25° C. The data set is classed as physicochemical. Here is the method:
As the material to be solubilized, five kinds of oil components, namely, vitamin E acetate, trioctanoin, isohexadecane, decamethylcyclopentasiloxane, and perfume were used.
The solubilizing ability was investigated with use of the above-described respective samples. The solubilizing ability was determined by measuring the turbidity at 25° C. with an integration type turbidimeter TR-35 (manufactured by the former Mitsubishi Chemical Corporation, which is presently Dia Instruments Co. Ltd.) and a glass cell (width: 50 mm, depth: 30 mm, height: 50 mm; manufactured by Mitsubishi Chemical Corporation).

[1] abbreviates: 0.05 mass % material to be solubilized.
[2] abbreviates: 0.1 mass % material to be solubilized.

For the substance “DL-α-Tocopherol ethylene oxide addition product [Comparative Example 1]”, under setting [1], the “Turbidity, Decamethylcyclopentasiloxane” value is listed as 53.2; the “Turbidity, Isohexadecane” value is recorded as 46.2; the “Turbidity, Perfume” value is given as 5.8; the “Turbidity, Trioctanoin” value is reported as 6.4. The “Turbidity, Vitamin E acetate” value under setting [1] stood at 2.0. For the same substance, under setting [2], the “Turbidity, Decamethylcyclopentasiloxane” value worked out at 76.1; the “Turbidity, Isohexadecane” value worked out at 78.9; the “Turbidity, Perfume” value amounted to 6.7; the “Turbidity, Trioctanoin” value turned out to be 41.9. Further, under setting [2], the “Turbidity, Vitamin E acetate” value is on record as 5.3.

For “DL-α-Tocopherol propylene oxide/ethylene oxide addition product [Comparative Example 2]”, under setting [1], the “Turbidity, Decamethylcyclopentasiloxane” value was determined as 38.5; the “Turbidity, Isohexadecane” value was 22.6; the “Turbidity, Perfume” value is 15.1; the “Turbidity, Trioctanoin” value was found to be 5.7. Also, the “Turbidity, Vitamin E acetate” value under setting [1] is 10.2. In addition, under setting [2], the “Turbidity, Decamethylcyclopentasiloxane” value was 76.2; the “Turbidity, Isohexadecane” value turned out to be 67.8; the “Turbidity, Perfume” value came to 5.4; the “Turbidity, Trioctanoin” value was found to be 15.1. For the same substance, the “Turbidity, Vitamin E acetate” value under setting [2] amounted to 10.6.
